Molecules are shown by their SMILES. “And” between values parts separate entries of the source, which are not always exact repeats. Equal entries are not always repeated. Only a part is listed here, and it is no random draw. Inconclusive results are not listed. The source made the active and inactive calls. Unless noted, the call rests on the fitted dose curve; in most records, active means well fitted curve in the direction sought with a large enough effect in the repeat runs; inconclusive means weak or mixed curves; inactive means no such curve, though single readings can be large; an effect the other way counts as inactive or inconclusive.

Sequences of proteins named here, by UniProt entry; tags and fusion partners are left off.
UniProt Q03181, whole entry: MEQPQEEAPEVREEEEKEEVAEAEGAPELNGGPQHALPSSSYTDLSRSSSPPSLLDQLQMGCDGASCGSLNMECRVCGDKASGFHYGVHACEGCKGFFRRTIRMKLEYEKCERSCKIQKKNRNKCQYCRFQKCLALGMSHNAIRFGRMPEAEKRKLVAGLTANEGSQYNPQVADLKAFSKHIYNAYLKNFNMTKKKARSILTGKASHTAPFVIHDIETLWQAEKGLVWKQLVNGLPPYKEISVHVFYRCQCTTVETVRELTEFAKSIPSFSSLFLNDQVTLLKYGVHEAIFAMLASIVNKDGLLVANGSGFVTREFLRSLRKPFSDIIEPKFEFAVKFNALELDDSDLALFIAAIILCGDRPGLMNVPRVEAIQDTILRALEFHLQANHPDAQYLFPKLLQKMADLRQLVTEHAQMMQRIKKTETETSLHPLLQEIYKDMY
UniProt P11511, whole entry: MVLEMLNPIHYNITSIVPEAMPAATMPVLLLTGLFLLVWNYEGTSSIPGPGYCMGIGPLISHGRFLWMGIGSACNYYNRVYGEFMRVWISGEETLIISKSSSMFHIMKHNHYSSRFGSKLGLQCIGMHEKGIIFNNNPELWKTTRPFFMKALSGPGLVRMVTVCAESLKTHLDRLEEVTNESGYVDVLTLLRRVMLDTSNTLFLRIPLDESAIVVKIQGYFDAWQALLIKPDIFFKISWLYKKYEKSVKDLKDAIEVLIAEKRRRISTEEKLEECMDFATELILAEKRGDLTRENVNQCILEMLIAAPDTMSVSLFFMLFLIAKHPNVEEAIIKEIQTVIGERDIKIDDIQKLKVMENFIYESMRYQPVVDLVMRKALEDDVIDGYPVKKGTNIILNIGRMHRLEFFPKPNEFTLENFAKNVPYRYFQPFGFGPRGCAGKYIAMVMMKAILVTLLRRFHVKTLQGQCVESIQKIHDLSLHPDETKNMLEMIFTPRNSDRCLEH
UniProt P35869, whole entry: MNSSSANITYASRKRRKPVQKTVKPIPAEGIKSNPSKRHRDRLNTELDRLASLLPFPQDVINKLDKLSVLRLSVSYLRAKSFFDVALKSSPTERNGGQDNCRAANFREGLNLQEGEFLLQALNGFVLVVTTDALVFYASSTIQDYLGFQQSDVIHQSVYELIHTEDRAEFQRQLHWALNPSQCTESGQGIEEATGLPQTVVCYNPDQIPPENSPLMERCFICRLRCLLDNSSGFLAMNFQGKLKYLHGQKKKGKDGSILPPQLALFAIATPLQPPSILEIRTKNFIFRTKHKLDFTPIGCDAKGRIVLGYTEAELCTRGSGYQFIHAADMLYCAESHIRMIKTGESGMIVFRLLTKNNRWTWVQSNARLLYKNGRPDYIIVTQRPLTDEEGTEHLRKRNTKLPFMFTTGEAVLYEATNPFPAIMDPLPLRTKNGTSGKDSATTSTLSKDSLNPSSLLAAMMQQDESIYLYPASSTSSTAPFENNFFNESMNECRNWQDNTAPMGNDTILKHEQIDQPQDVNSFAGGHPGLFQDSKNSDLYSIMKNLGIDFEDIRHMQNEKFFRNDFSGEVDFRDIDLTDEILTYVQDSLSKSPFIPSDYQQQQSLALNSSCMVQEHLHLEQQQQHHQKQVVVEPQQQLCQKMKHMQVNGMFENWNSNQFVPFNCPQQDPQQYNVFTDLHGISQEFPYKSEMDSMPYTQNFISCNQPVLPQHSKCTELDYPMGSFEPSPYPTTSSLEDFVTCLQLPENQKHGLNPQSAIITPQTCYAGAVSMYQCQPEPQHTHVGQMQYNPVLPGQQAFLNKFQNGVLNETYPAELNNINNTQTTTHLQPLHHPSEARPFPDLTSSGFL
UniProt P37231, whole entry: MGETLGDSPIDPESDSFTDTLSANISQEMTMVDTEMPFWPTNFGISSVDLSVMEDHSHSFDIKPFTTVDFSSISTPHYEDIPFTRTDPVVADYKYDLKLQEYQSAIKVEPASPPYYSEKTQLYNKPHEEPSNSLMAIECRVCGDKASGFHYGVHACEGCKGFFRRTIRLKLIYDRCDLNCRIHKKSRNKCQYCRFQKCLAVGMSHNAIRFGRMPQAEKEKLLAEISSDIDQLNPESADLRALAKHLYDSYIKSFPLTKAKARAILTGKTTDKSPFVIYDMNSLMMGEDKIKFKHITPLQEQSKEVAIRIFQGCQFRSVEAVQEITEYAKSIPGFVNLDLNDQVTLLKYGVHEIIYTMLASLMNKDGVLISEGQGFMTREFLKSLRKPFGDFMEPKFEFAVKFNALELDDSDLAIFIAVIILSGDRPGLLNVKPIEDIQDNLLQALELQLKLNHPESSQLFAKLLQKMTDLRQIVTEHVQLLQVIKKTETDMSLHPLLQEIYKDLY

Test [1] is described as follows: qHTS assay to identify small molecule antagonists of the peroxisome proliferator-activated receptor gamma (PPARg) signaling pathway - cell viability counter screen (AID 743194). Further: nearly all actives have a fitted effect of over 55% in size. To be noted: PPARg-bla HEK293H viability, CellTiter-Glo luminescence, 17 h; at 62.6 µM (top of the series); co-treated with 50 nM rosiglitazone. An outline of the steps:
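Cytotoxicity counter screen in PPARg-bla HEK293H cells, same wells as reporter assay. Compounds plus 50 nM rosiglitazone (final) for 17 h at 37 C, then viability read by CellTiter-Glo luminescence.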
(qHTS replaces the single test concentration by a dilution series.)

Test [2] can be described thus: qHTS assay for small molecule agonists of the antioxidant response element (ARE) signaling pathway (AID 743202; active means well fitted activation curve with a large enough effect in the signal ratio in the repeat runs, not every such curve was filed as active; the % refers to the signal ratio). As to conditions: HepG2 ARE-bla reporter, beta-lactamase FRET, 16 h; at 73.3 µM (top of the series). An outline of the steps:
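HepG2 ARE-bla reporter line, 2,000 cells/well; 5 h preincubation 37 C/5% CO2; compound (DMSO) 16 h 37 C; B/G FRET substrate 2 h RT; fluorescence intensity.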

A short description of test [3]: qHTS assay for small molecule agonists of the antioxidant response element (ARE) signaling pathway - cell viability counter screen (AID 743203; calls by dose curve; further: nearly all actives have a fitted effect of over 55% in size). To be noted: ARE-bla HepG2 viability, CellTiter-Glo luminescence, 16 h; at 73.3 µM (top of the series). The gist of the method:
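Cytotoxicity was tested in parallel with the ARE reporter screen. ARE-bla HepG2 cells were exposed to compounds for 16 hrs, and viability was taken from CellTiter-Glo luminescence.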

The nature of test [4]: qHTS assay for small molecule activators of the heat shock response signaling pathway - cell viability counter screen (AID 743209). Further: nearly all actives have a fitted effect of over 50% in size. To be noted: HSE-bla HeLa viability, CellTiter-Glo luminescence, 5 h; at 62.6 µM (top of the series). The gist of the method:
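Cytotoxicity counter screen run in parallel with the HSE beta-lactamase reporter, using the same wells. HeLa HSE-bla cells received compound for 5 h at 37 C; ATP-based CellTiter-Glo luminescence was measured after 30 min at room temperature.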

A short description of test [5]: qHTS assay for small molecule activators of the heat shock response signaling pathway (AID 743210; active means well fitted activation curve with a large enough effect in the signal ratio in the repeat runs, with a control signal flat, not every such curve was filed as active; the % refers to the signal ratio;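 further: HeLa cells with beta-lactamase reporter driven by heat shock elements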). To be noted: HeLa HSE-bla reporter, beta-lactamase ratio, 5 h; at 62.6 µM (top of the series). The gist of the method:
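Beta-lactamase reporter read-out: FRET substrate fluorescence after 2.5 h at RT, following 5 h compound treatment at 37 C of HeLa cells carrying HSE-driven bla reporter; quantitative HTS format.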

Test [6] can be described thus: qHTS assay to identify small molecule agonists of the peroxisome proliferator-activated receptor delta (PPARd) signaling pathway - cell viability counter screen (AID 743211). Further: nearly all actives have a fitted effect of over 55% in size. As to conditions: PPARd-bla HEK293H viability, CellTiter-Glo luminescence, 17 h; at 62.6 µM (top of the series). An outline of the steps: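 PPARd-bla HEK293H cells (UAS-beta-lactamase reporter) were treated with compounds for 17 h at 37 C. Viability was then read in the same wells by CellTiter-Glo luminescence after 30 min at room temperature.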

For test [7], the target named is Peroxisome proliferator-activated receptor delta (Homo sapiens) (UniProt Q03181). In words: qHTS assay to identify small molecule agonists of the peroxisome proliferator-activated receptor delta (PPARd) signaling pathway (AID 743212; calls by dose curve). As to conditions: HEK293H PPARd-UAS-bla, beta-lactamase FRET ratio, 17 h; at 62.6 µM (top of the series). The gist of the method:
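Read-out: beta-lactamase FRET fluorescence after 2 h room-temperature incubation with LiveBLAzer B/G substrate. Cells were HEK293H carrying a UAS-bla reporter for PPARd, treated at 37 C with DMSO-dissolved compounds.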

A short description of test [8]: qHTS assay to identify small molecule antagonists of the peroxisome proliferator-activated receptor delta (PPARd) signaling pathway - cell viability counter screen (AID 743213). Further: nearly all actives have a fitted effect of over 50% in size. As to conditions: PPARd-bla HEK293H viability, CellTiter-Glo luminescence, 17 h; at 62 µM (top of the series). The gist of the method: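 HEK293H PPARd UAS-bla cells, 5 h pre-incubation, compound + L165041 300 nM final, 17 h 37 C; B/G FRET substrate 2 h RT; then CellTiter-Glo 30 min RT, luminescence.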

In test [9] the target is Peroxisome proliferator-activated receptor delta (Homo sapiens) (UniProt Q03181). In words: qHTS assay to identify small molecule antagonists of the peroxisome proliferator-activated receptor delta (PPARd) signaling pathway (AID 743215; active means well fitted inhibition curve with a large enough effect in the signal ratio in the repeat runs, not every such curve was filed as active; the % refers to the signal ratio;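 further: cells stimulated with agonist L165041 at 300 nM final during compound exposure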). To be noted: HEK293H PPARd-UAS-bla, beta-lactamase FRET ratio, antagonist, 17 h; at 62 µM (top of the series). An outline of the steps:
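Cells: HEK293H with a UAS-driven beta-lactamase reporter responsive to PPARd. Compounds were co-added with L165041 (300 nM, final) and incubated 17 h at 37 C before a 2 h room-temperature FRET substrate step and fluorescence reading.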

Test [10] in a line: qHTS assay to identify small molecule antagonists of the estrogen receptor alpha (ER-alpha) signaling pathway using the BG1 cell line - cell viability counter screen (AID 743081).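 Further: compound given together with 17beta-estradiol as the ER stimulus; nearly all actives have a fitted effect of over 45% in size.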 To be noted: BG1Luc4E2 viability, CellTiter-Fluor, 22 h; at 70.3 µM (top of the series).
Another test has as its target Aromatase (Homo sapiens) (UniProt P11511). In words: qHTS assay to identify aromatase inhibitors (AID 743083). Further: nearly all actives have a fitted effect of over 55% in size. Further: potency means the concentration at half of the fitted maximal effect. As to conditions: MCF-7 aro ERE, testosterone-driven ERE luciferase, 24 h; series mostly up to 70.3 µM.
Test [11] can be described thus: qHTS assay to identify aromatase inhibitors - cell viability counter screen (AID 743084). Further: potency means the concentration at half of the fitted maximal effect. As to conditions: MCF-7 aro ERE viability, CellTiter-Fluor, 24 h; series mostly up to 70.3 µM.
Test [12] in a line: qHTS assay to identify small molecule that activate the aryl hydrocarbon receptor (AhR) signaling pathway - cell viability counter screen (AID 743086).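 Further: HepG2 liver cells carrying the AhR DRE luciferase reporter; nearly all actives have a fitted effect of over 45% in size.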 To be noted: HepG2-AhR-luc viability, CellTiter-Fluor, 24 h; series mostly up to 70.3 µM. The gist of the method:
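HepG2-AhR-luc (HG2L7.5c1) cells, 4000/well, treated 24 h at 37 C with compound; viability measured as CellTiter-Fluor fluorescence after 30 min in the same wells as the luciferase read.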

Test [13] is described as follows: qHTS assay to identify small molecule antagonists of the estrogen receptor alpha (ER-alpha) signaling pathway - cell viability counter screen (AID 743074; calls by dose curve;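 further: HEK293 cells carrying ER-alpha-UAS-bla reporter stimulated with 17beta-estradiol; nearly all actives have a fitted effect of over 45% in size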). To be noted: ERalpha-bla HEK293 viability, CellTiter-Glo luminescence, 18 h; series mostly up to 69.4 µM.
Test [14] is described as follows: qHTS assay to identify small molecule antagonists of the estrogen receptor alpha (ER-alpha) signaling pathway using the BG1 cell line (AID 743080; calls by dose curve;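 further: BG1 cells stimulated with 17beta-estradiol alongside compound; nearly all actives have a fitted effect of over 25% in size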). As to conditions: BG1Luc4E2 ERE-luciferase antagonist mode, luminescence; at 70.3 µM (top of the series). An outline of the steps:
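Luminescence from a 4×ERE-luciferase reporter in BG1-Luc-4E2 cells served as read-out. Cells, pre-cultured 5 days in stripped-serum phenol-red-free medium, were exposed to compound with 17beta-estradiol co-stimulation for 21.5 h at 37 C.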

For test [15], the target named is Aryl hydrocarbon receptor (Homo sapiens) (UniProt P35869). Description: qHTS assay to identify small molecule that activate the aryl hydrocarbon receptor (AhR) signaling pathway (AID 743085).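 Further: HG2L7.5c1 human HepG2 liver cells with stably integrated DRE-driven firefly reporter; nearly all actives have a fitted effect of over 15% in size.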 To be noted: HepG2 AhR-luc (HG2L7.5c1), luciferase, 24 h; at 70.3 µM (top of the series).
The target in test [16] is Peroxisome proliferator-activated receptor gamma (Homo sapiens) (UniProt P37231). Description: qHTS assay to identify small molecule agonists of the peroxisome proliferator-activated receptor gamma (PPARg) signaling pathway (AID 743094; active means well fitted activation curve with a large enough effect in the signal ratio in the repeat runs, not every such curve was filed as active; the % refers to the signal ratio). As to conditions: HEK293H PPARg-UAS-bla, beta-lactamase FRET ratio, 17 h; at 57 µM (top of the series). An outline of the steps: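 Cells from the PPARg UAS-bla HEK293H line are plated and incubated 5 h at 37C. Compounds in DMSO are pinned in and left 17 h at 37C. LiveBLAzer B/G substrate is then added for 1 h at room temperature before fluorescence is measured.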

For test [17] the target is unchanged. In words: qHTS assay to identify small molecule antagonists of the peroxisome proliferator-activated receptor gamma (PPARg) signaling pathway (AID 743191; calls by dose curve; further: nearly all actives have a fitted effect of over 30% in size). As to conditions: HEK293H PPARg-UAS-bla, beta-lactamase ratio, antagonist, 17 h; at 62.6 µM (top of the series) unless noted. The gist of the method:
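GeneBLAzer PPARg UAS-bla HEK293H cells, 5 h post-plating, exposed to compounds 17 h at 37C. LiveBLAzer B/G FRET substrate added for 1 h at room temperature; beta-lactamase reporter read by fluorescence intensity.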
On the % scale 0 is the no-effect control and ±100 the full control effect.

Turning to `CCOC(=O)N1CCC(=O)CC1`, the activity change, negative = cytotoxicity in test [1] is inactive: 5.21%; in test [4], inactive: -1%; in test [6], inactive: 3.63%. Also, the activation in test [2] is inactive: -2.66%; in test [5] it was inactive: 1.2%; in test [7], inactive: 1.95%. The figures for the viability change, negative = cytotoxic in [3] and in test [8] were inactive: -2.84% and inactive: -9.58%, respectively. Besides, the ratio activity, negative = inhibition in [9] was inactive: -0.649%.

On to `CCOP(=S)(Cl)OCC`, for which the activity change, negative = cytotoxicity was inactive: -2.25% in test [10], inactive: -16.3% in test [1], inactive: 1.07% in test [4] and inactive: -0.531% in test [6]. Moreover, the Potency with Aromatase (Homo sapiens) is active: 67.6 µM; in test [11], active: 60.3 µM. Further, in test [12], the Potency result is “inactive”. Besides, the activation in test [2] is inactive: -1.05%. Further, the viability change, negative = cytotoxic is inactive: -12.8% in test [3] and inactive: -5.75% in [8].

`CCOP(=O)(Cl)Cl`: the Potency entry (in [13]; with Aromatase (Homo sapiens); in test [11]; in [12]) was “inactive” in each case. Further, the activity change, negative = inhibition in test [14] is inactive: -7.22% and inactive: 4.98%. The activity change, negative = cytotoxicity in [10] was inactive: 2.57% and inactive: 0.94%; in [1], inactive: 1.44%; in test [4], inactive: -6.2% and inactive: 3.68%; in [6] it was inactive: 7.37% and inactive: -20.6%. In addition, the activation in test [15] is inactive: -0.998% and inactive: 2.15%; in test [16] it was inactive: 2.34% and inactive: -1.11%; in [7] it was inactive: -1.04% and inactive: -1.5%. In addition, the ratio activity, negative = inhibition is inactive: -10.7% and inactive: 6.4% in test [17]; inactive: -2.47% and inactive: 10.8% in test [9]. Moreover, the viability change, negative = cytotoxic was inactive: 0.0229% and inactive: 0.605% in test [3]; inactive: -2.26% and inactive: 0.0576% in [8].

As for `CCC(=O)N(c1ccccc1)C1CCNCC1`, the ratio activity, negative = inhibition was inactive: -16% in test [17] and inactive: -15.1% in test [9]. Besides, the activity change, negative = cytotoxicity in test [1] was inactive: 2.59%; in test [4], inactive: -16.1%; in test [6], inactive: -2.17%. For the same molecule, the activation is inactive: -13.8% in test [2], inactive: -1.66% in test [5] and inactive: 0.525% in test [7]. Further, the viability change, negative = cytotoxic in test [3] is inactive: -2.49%; in [8], inactive: -26.4%.

For the origin of these results see PubChem BioAssay (Tox21).
